Protein sequences, listed by entry. Tags and fused reporters are not part of them. Lines headed by an entry give the natural chain unless they say otherwise; changes in a name come on top.
UniProt Q86WV6: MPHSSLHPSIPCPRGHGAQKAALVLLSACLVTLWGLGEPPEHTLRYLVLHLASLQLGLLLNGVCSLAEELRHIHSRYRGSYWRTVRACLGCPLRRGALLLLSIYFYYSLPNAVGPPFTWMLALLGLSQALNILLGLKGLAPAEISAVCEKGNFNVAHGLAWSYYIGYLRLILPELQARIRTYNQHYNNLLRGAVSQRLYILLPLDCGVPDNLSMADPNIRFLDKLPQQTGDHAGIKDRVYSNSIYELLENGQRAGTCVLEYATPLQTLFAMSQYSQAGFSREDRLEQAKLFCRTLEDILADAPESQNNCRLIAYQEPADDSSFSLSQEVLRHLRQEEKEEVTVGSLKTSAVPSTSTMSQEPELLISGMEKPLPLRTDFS

In ChEMBL document CHEMBL5728787, “Sting agonists” (2021):

Experiments:
[1] = biological target: T1, Stimulator of interferon genes protein (Homo sapiens, UniProt Q86WV6); assay: Binding Assay: A human STING [3H] 2′,3′-cGAMP scintillation proximity competition binding assay was utilized to detect binding of compounds to STING protein. The competition binding assay was conducted with either a wild-type (WT, SEQ ID NO: 1) or an AQ variant (SEQ ID NO: 2) of truncated human STING protein that lacks the N-terminal four transmembrane domains and contains amino acids …
[2] = biological target: T1, Stimulator of interferon genes protein; assay: as above; remark: listed apart in the source

Structure (SMILES) | pIC50 [1] | pIC50 [2]
Nc1nc2c(ncn2[C@H]2O[C@H]3COP(=O)(S)OCCn4c(nc5cncnc54)COP(=O)(S)O[C@@H]2C3)c(=O)[nH]1 (some centres undefined) | > 6.00 | > 6.00
Nc1nc2c(ncn2[C@H]2O[C@@H]3COP(=O)(S)OCCn4nc(-c5ccncc5)nc4COP(=O)(S)O[C@@H]2[C@H]3F)c(=O)[nH]1 (some centres undefined) |  | > 6.00
Nc1nc2c(nnn2[C@@H]2O[C@@H]3COP(=O)(S)OCCn4c(nc5cncnc54)COP(=O)(S)O[C@@H]2[C@H]3F)c(=O)[nH]1 (some centres undefined) |  | > 6.00
Nc1nc2c(ncn2[C@@H]2O[C@@H]3COP(=O)(S)OCCn4nc(-c5cncs5)nc4COP(=O)(S)O[C@@H]2[C@H]3F)c(=O)[nH]1 (some centres undefined) |  | > 6.00
Nc1nc2c(ncn2[C@@H]2O[C@@H]3COP(=O)(S)OCCn4c(nc5cncnc54)COP(=O)(S)O[C@@H]2[C@H]3O)c(=O)[nH]1 (some centres undefined) | > 6.00 | > 6.00
Nc1nc2c(ncn2[C@@H]2O[C@@H]3COP(=O)(O)OCCn4c(nc5cncnc54)COP(=O)(S)O[C@@H]2[C@H]3F)c(=O)[nH]1 (some centres undefined) |  | > 6.00
Nc1nc2c(ncn2[C@H]2O[C@@H]3COP(=O)(S)OCCn4nc(-c5cncs5)nc4COP(=O)(S)O[C@@H]2[C@H]3F)c(=O)[nH]1 (some centres undefined) | > 6.00 | > 6.00
Nc1nc2c(ncn2[C@H]2O[C@@H]3COP(=O)(S)OCCn4c(nc5cncnc54)COP(=O)(O)O[C@@H]2[C@H]3F)c(=O)[nH]1 (some centres undefined) | > 6.00 | > 6.00
Nc1nc2c(ncn2[C@H]2O[C@@H]3COP(=O)(S)OCCn4c(nc5cncnc54)COP(=O)(S)O[C@@H]2[C@@H]3O)c(=O)[nH]1 (some centres undefined) |  | > 6.00
Nc1nc2c(ncn2[C@H]2O[C@@H]3COP(=O)(S)OCC(F)(F)Cn4c(nc5cncnc54)COP(=O)(S)O[C@@H]2[C@@H]3F)c(=O)[nH]1 (some centres undefined) |  | > 6.00
Nc1nc2c(ncn2[C@@H]2O[C@H]3COP(=O)(S)OCCn4c(nc5cncnc54)COP(=O)(S)O[C@@H]2C3)c(=O)[nH]1 (some centres undefined) |  | > 6.00
Nc1nc2c(ncn2[C@H]2O[C@@H]3COP(=O)(S)OCCn4c(nc5cc(Cl)cnc54)COP(=O)(S)O[C@@H]2[C@H]3F)c(=O)[nH]1 (some centres undefined) | > 6.00 | > 6.00
Nc1nc2c(nnn2[C@H]2O[C@@H]3COP(=O)(S)OCCn4c(nc5cncnc54)COP(=O)(S)O[C@@H]2[C@H]3F)c(=O)[nH]1 (some centres undefined) | > 6.00 | > 6.00

pIC50: −log10 of the molar value.
